Entries after “also recorded” stand apart in the source; their conditions may differ.
Molecular target: T1, RIP1 (Homo sapiens, UniProt Q13546)
T1 construct: RIP has been immunoprecipitated (IP) from lysates of WT and RIP-deficient Jurkat cells using agarose-conjugated anti-RIP antibody; endogenous in cells; host or cells: Jurkat (wild type)
T1 sequence (Q13546 1-671): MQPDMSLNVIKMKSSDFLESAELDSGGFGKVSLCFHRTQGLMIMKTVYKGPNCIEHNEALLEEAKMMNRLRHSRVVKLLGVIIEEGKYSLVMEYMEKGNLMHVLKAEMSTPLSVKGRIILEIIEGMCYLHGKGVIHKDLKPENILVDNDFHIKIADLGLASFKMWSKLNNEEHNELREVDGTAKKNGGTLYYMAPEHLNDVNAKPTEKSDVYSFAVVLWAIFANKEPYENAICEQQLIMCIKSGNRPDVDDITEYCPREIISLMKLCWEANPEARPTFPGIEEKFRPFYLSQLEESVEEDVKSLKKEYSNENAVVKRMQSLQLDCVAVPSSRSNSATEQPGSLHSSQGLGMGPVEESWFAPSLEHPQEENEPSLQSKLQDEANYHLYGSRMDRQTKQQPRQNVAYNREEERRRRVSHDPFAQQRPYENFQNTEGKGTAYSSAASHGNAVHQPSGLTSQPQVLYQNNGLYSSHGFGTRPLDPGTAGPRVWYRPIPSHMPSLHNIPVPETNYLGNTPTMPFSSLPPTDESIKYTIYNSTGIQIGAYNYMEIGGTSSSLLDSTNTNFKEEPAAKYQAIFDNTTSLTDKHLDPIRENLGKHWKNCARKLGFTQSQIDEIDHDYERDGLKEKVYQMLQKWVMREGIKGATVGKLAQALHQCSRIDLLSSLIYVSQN
Assay: In vitro kinase assay: autophosphorylation of immunoprecipitated RIP1
Type: biochemical
Details: radioactive ATP, 30 min at 30° C., autoradiography

methylthiohydantoin-tryptophane [Nec-1]
inhibition of RIP1 autophosphorylation, in words: inhibits the autophosphorylation of RIP1; also recorded: inhibited the autophosphorylation of RIP1 in vitro

Source: patent US20130158024A1, “TRICYCLIC NECROSTATIN COMPOUNDS” (priority 2005, published 2013)
